# Patent US20240123081A1, “BRANCHED MOIETY FOR USE IN CONJUGATES” (priority 2019, published 2024)
# Tested on: MDA-MB-453 cells
# Assay: In vitro cell viability (Cell Titer-Glo Luminescent Cell Viability Assay)
# Assay type: cell-based, Human
# Conditions: 6 days, comparison in words, cell line taken from preceding sentence (MDA-MB-453)
# Description: Human cancer cell lines SK-BR-3, BT-474, and MDA-MB-453 were seeded into white polystyrene tissue-culture treated 96-well plates (Costar) at a density of 3000 cells/well in RPMI +10% FBS (Invitrogen). On the following day, antibodies and ADCs were spiked into triplicate wells using an 8-point dose curve of 1:4 serial dilutions starting from 0.5 μg/mL. Cell viability was determined 6 days later using the Cell Titer-Glo Luminescent Cell Viability Assay kit (Promega) following the manufacturers protocol. Luminescence was measured using an EnVision 2104 Multilabel Reader (Perkin Elmer). Cell viability was calculated as a percentage of control untreated cells. Results of the in vitro cell viability assay are shown in FIG. 1 (SKBR3 (HER2+) 3000 cells/well) and FIG. 2 (MDA-MB-453 (HER2+) 3000 cells/wells), in which the symbols represent the following antibodies/conjugates: […]
substance,measurement,value
Herceptin-19-O-vc-PAB-MMAE-SG3457,relative toxicity / potency compared with another conjugate (cell viability),equipotent to Herceptin-19-SG3457
